# Measurements reported in patent US20100125103A1, “COMPOSITION FOR THE TREATMENT OF DIABETES AND METABOLIC SYNDROME CONTAINING OBOVATOL AND ITS SYNTHESIZED DERIVATIVES” (TG BIOTECH CO. LTD., priority 2008, published 2010).
# Assay: Solubility (Table 1)
# Type: physicochemical
# Protocol: Each of the compounds prepared by Examples 1 to 7 were subjected to UV absorbance analysis, IR(infrared) absorbance analysis and high resolution mass spectrometry analysis so as to determine the molecular weight and formula of the purified compound. Specifically, UV absorbance analysis was carried out by UV-265 spectrophotometer (Shimadzu), IR absorbance analysis was carried out by FTS-80 spectrophotometer (Bio-Rad Digilab Division), and the molecular weight and formula were determined through High resolution MS analysis by using VG70-SEQ mass spectrometry. Also, a nuclear magnetic resonance device (Varian 300, 500 NMR) was used to obtain ^1H, ^13C-NMR spectrum, and the spectrum was synthetically analyzed to determine the structure.
substance,measurement,setting,value
obovatol [Example 1],Solubility Insoluble,solvents in which the compound is insoluble,Water
same,Solubility Soluble,solvents in which the compound is soluble,"Alcohol, and DMSO"
